HCMV UL50-53 inh = inhibitors of HCMV UL50-UL53 interaction, biochemical, HTRF; 190,000 compounds, 0.15% hits; HCMV UL50-UL53 nuclear egress complex (human cytomegalovirus); normalized percent inhibition; inhibition, % (no concentration beside the values); AID 1918969, 2023; in the data active means inhibition above about 27%, passing the limit was not always enough
GIV-Gai inh = blocks GIV peptide binding to rat Galpha-i3; P08753; Galpha-i3/FITC-GIV peptide fluorescence polarization, 90 min; stronger effect = lower value; scaled: aluminum fluoride 0%, vehicle 100%; percent of control (FP), % (no concentration beside the values); 210,000 tested, 0.42% active; AID 1224905;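 active = replicate mean at 85% of control or lower, very high polarization wells dropped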;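 also: wells of about 15 µL received 100 nL stock; the first replicate is given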
Numbers without * were called inactive. Only some compounds are listed: those with a hit (about 0.46% of all), similar ones and a draw of the others.

Results for CN(C)C1C(=O)C(C(N)=O)=C(O)C2(O)C(=O)C3=C(O)c4c(O)ccc(Cl)c4C(O)C3CC12 (configuration not stated) ?
HCMV UL50-53 inh: -54

Results for C=C1c2cccc(O)c2C(O)=C2C(=O)C3(O)C(O)=C(C(N)=O)C(=O)C(N(C)C)C3C(O)C12 (configuration not stated) ?
HCMV UL50-53 inh: 104*; GIV-Gai inh: 103

Results for COc1ccc(NC(=O)Nc2nnc(SCC(=O)Nc3ccc(OC)cc3OC)s2)cc1 ?
GIV-Gai inh: 100

What do the screens show for `COc1ccc(N=Cc2sc3ccccc3c2Cl)cc1`?
HCMV UL50-53 inh: 27

Results for CCOc1ccc(N=Cc2sc3ccccc3c2O)cc1 ?
HCMV UL50-53 inh: -24; GIV-Gai inh: -15*

Results for Cc1ccccc1N=Cc1sc2ccccc2c1O ?
HCMV UL50-53 inh: -15; GIV-Gai inh: 157

What do the screens show for `COc1ccccc1N=Cc1sc2ccccc2c1O`?
HCMV UL50-53 inh: -33; GIV-Gai inh: -53*

How did O=C1/C(=C/c2cc([N+](=O)[O-])cc(Br)c2O)SC(=S)N1c1ccc([N+](=O)[O-])cc1 do in these assays?
HCMV UL50-53 inh: -19; GIV-Gai inh: 106

Results for O=C(O)CN1C(=O)/C(=C\c2cc([N+](=O)[O-])cc(Br)c2O)SC1=S ?
HCMV UL50-53 inh: -78; GIV-Gai inh: -59*

How did CN(C)c1ccc(/C=C/C=C2/SC(=O)N(CC(=O)N3CCCC3)C2=O)cc1 do in these assays?
HCMV UL50-53 inh: -38; GIV-Gai inh: 128

How did c1ccc(N=c2[n-][n+](-c3ccccc3)cn2-c2ccccc2)cc1 do in these assays?
HCMV UL50-53 inh: 55*

Results for O=C1CN(c2ccccc2)C(=Nc2ccccc2)S1 ?
HCMV UL50-53 inh: 7; GIV-Gai inh: 97

What do the screens show for `COc1cccc(CC(=O)Nc2nnc(SCc3ccc(C#N)cc3)s2)c1`?
HCMV UL50-53 inh: -25

Results for Cc1ccc(NC(=O)c2sc3nc(-c4ccncc4)ccc3c2N)cc1 ?
HCMV UL50-53 inh: 2; GIV-Gai inh: -53*

What do the screens show for `Nc1c(C(=O)Nc2ccc(F)c(F)c2)sc2nc(-c3ccncc3)ccc12`?
HCMV UL50-53 inh: 2; GIV-Gai inh: 124

How did COCCN=c1scc(-c2ccc(OC(F)F)cc2)n1/N=C/c1ccc[nH]1 do in these assays?
HCMV UL50-53 inh: -26

Results for Cc1ccc(-n2[nH]c(C)c(N=Nc3cccc(-c4cccc(C(=O)O)c4)c3O)c2=O)cc1C ?
HCMV UL50-53 inh: 80*

How did CC(=O)c1ccc(N=Cc2c(C)[nH]n(-c3ccc(C)c(C)c3)c2=O)cc1 do in these assays?
GIV-Gai inh: 111

Results for CC(C)c1ccc(S(=O)(=O)Nc2cc(C(=O)O)cnc2N(C)C)cc1 ?
HCMV UL50-53 inh: -24; GIV-Gai inh: 75*

How did CC(C)Cc1ccc(S(=O)(=O)Nc2cc(C(=O)O)cnc2N(C)C)cc1 do in these assays?
HCMV UL50-53 inh: -20; GIV-Gai inh: 101

The list goes on (five carried over from the part before).
How did COCCN=c1scc(-c2ccc(OC(F)F)cc2)n1/N=C/c1ccc[nH]1 do in these assays?
HCMV UL50-53 inh: -26

Results for Cc1ccc(-n2[nH]c(C)c(N=Nc3cccc(-c4cccc(C(=O)O)c4)c3O)c2=O)cc1C ?
HCMV UL50-53 inh: 80*

How did CC(=O)c1ccc(N=Cc2c(C)[nH]n(-c3ccc(C)c(C)c3)c2=O)cc1 do in these assays?
GIV-Gai inh: 111

Results for CC(C)c1ccc(S(=O)(=O)Nc2cc(C(=O)O)cnc2N(C)C)cc1 ?
HCMV UL50-53 inh: -24; GIV-Gai inh: 75*

How did CC(C)Cc1ccc(S(=O)(=O)Nc2cc(C(=O)O)cnc2N(C)C)cc1 do in these assays?
HCMV UL50-53 inh: -20; GIV-Gai inh: 101

How did COCCCN1C(=O)/C(=C\c2c(N3CC(C)OC(C)C3)nc3c(C)cccn3c2=O)SC1=S (configuration not stated) do in these assays?
GIV-Gai inh: 208

How did Cc1cccn2c(=O)c(/C=C3\SC(=S)N(CCCC(=O)O)C3=O)c(N3CCCCC3)nc12 do in these assays?
GIV-Gai inh: 40*

How did Cc1cccn2c(=O)c(/C=C3\SC(=S)N(CCCC(=O)O)C3=O)c(NCCc3ccccc3)nc12 do in these assays?
GIV-Gai inh: 132

Results for Cc1cccn2c(=O)c(/C=C3\SC(=S)N(C)C3=O)c(N3CCCC3)nc12 ?
GIV-Gai inh: -36*

What do the screens show for `CC1(C)CC(=O)c2cc(-c3ccc(Br)cc3)n(CC(=O)OCC(=O)c3ccc(Br)cc3)c2C1`?
GIV-Gai inh: 106

What do the screens show for `COC(=O)CN1C(=O)CSc2cc(S(=O)(=O)N3CCCC3)ccc21`?
HCMV UL50-53 inh: -2

What do the screens show for `Cn1nc(-c2nc(C3CC3)no2)c2c1CCN(C(=O)c1cc3c(s1)CCCC3)C2`?
GIV-Gai inh: 105

What do the screens show for `O=C1c2ccccc2-c2onc3c(N4CCN(C5CCCCC5)CC4)cc(NCCO)c1c23`?
HCMV UL50-53 inh: -136; GIV-Gai inh: 100

How did O=C1c2ccccc2-c2onc3c(Br)cc(NC4CCCCC4)c1c23 do in these assays?
HCMV UL50-53 inh: -21; GIV-Gai inh: 86

What do the screens show for `Cc1ccccc1Nc1cc(N2CCCC2)c2noc3c2c1C(=O)c1ccccc1-3`?
GIV-Gai inh: 109

What do the screens show for `CC(C)Nc1cc(N2CCN(Cc3ccc4c(c3)OCO4)CC2)c2noc3c2c1C(=O)c1ccccc1-3`?
HCMV UL50-53 inh: -64; GIV-Gai inh: -31*

What do the screens show for `CN(C)CCCNc1cc(N2CCN(C3CCCCC3)CC2)c2noc3c2c1C(=O)c1ccccc1-3`?
HCMV UL50-53 inh: -151; GIV-Gai inh: -7.2*

Results for CC1CCN(c2cc(NC(C)C)c3c4c(onc24)-c2ccccc2C3=O)CC1 ?
HCMV UL50-53 inh: -117; GIV-Gai inh: -4.4*

How did Cc1ccccc1Nc1cc(N2CCCCC2)c2noc3c2c1C(=O)c1ccccc1-3 do in these assays?
GIV-Gai inh: 107

How did CC(C)Nc1cc(Br)c2noc3c2c1C(=O)c1ccccc1-3 do in these assays?
GIV-Gai inh: -55*

How did COc1cc(-c2nc3ccccc3c(=O)n2NCc2ccc(Br)cc2)cc(OC)c1OC do in these assays?
HCMV UL50-53 inh: -29; GIV-Gai inh: 103

What do the screens show for `O=C1CSc2sc(=O)sc2S1`?
GIV-Gai inh: 110

Results for CCCC(=O)OCc1cnc(C)c2oc(=O)c(C(=O)Nc3ccsc3C(=O)OC)cc12 ?
HCMV UL50-53 inh: -16; GIV-Gai inh: 108

Results for CCOc1cccc2c1OC1(C)CC2/C(=C(\C)O)C(=O)N1 (configuration not stated) ?
GIV-Gai inh: 125

How did Cc1cc(C(=O)COC(=O)c2ccc(S(=O)(=O)N(C)C)cc2)c(C)n1-c1ccc2c(c1)OCO2 do in these assays?
HCMV UL50-53 inh: -24

What do the screens show for `Cc1ccc(NC(=O)C2CCN(S(=O)(=O)c3ccc4c(c3)C(C)(C)C(=O)N4C)CC2)cc1`?
HCMV UL50-53 inh: -3; GIV-Gai inh: 113

How did O=S(=O)(c1ccccc1)c1ccc(NCc2ccc3c(c2)OCO3)nn1 do in these assays?
HCMV UL50-53 inh: -26; GIV-Gai inh: 93

How did CCOC(=O)C1=C(c2ccc(Cl)cc2)Sc2nnc(C(F)(F)F)n2N=C1N do in these assays?
HCMV UL50-53 inh: 7

How did CC(=O)OC(OC(C)=O)C12C=CC(O1)C1C(=O)N(c3ccc(C)cc3C)C(=O)C12 (configuration not stated) do in these assays?
GIV-Gai inh: 101

Results for CCCCC(C)(C)[C@H](O)/C=C/[C@H]1[C@H](O)CC(=O)[C@@H]1CC(=O)CCCCC(=O)O ?
HCMV UL50-53 inh: -14

How did CCNc1cc(N2CCC3(CC2)OCCO3)c2noc3c2c1C(=O)c1ccccc1-3 do in these assays?
HCMV UL50-53 inh: -121; GIV-Gai inh: 240

What do the screens show for `CCNc1cc(N2CCOCC2)c2noc3c2c1C(=O)c1ccccc1-3`?
HCMV UL50-53 inh: -102; GIV-Gai inh: -31*

What do the screens show for `CC(C)CNc1cc(N2CCC(C)CC2)c2noc3c2c1C(=O)c1ccccc1-3`?
HCMV UL50-53 inh: -53; GIV-Gai inh: 198

Results for CC1CCN(c2cc(NCc3ccccc3)c3c4c(onc24)-c2ccccc2C3=O)CC1 ?
HCMV UL50-53 inh: -71; GIV-Gai inh: -4.4*
